# Data reported in patent US20110189347A1, “USE OF SUCCINIC ACID” (priority 2008, published 2011).
# Key:
# [1] = Growth performance of broiler chickens, floor pen trial over five weeks (Example 6); assay type: in vivo
# Source text: The objective of the present trial (Trial A) was to evaluate the effects of sucinic acid on the growth performance of broiler chickens in a floor pen trial over five weeks. Succinic acid was supplemented at four different dose levels. […] Each group was placed in one floor pen littered with wood shavings and allocated to one of the different treatments. Each treatment was replicated with 4 groups per sex. Birds had ad libitum access to feed and tap water. […] Chickens received diets based on soybean meal, and wheat as main ingredients (Table 6). […] The target quantities of succinic acid were added on top to the feed, mixed with appropriate amounts of maize starch as a carrier: […] For the statistical evaluation of the data, a one-factorial analysis of variance for each diet (factor: treatment) was carried out. Where significant treatment effects (p<0.05) were indicated, the differences among treatment means were subsequently analyzed with the Newman-Keuls test.
# [2] = group B, 0.5% in diet, 29 days
# [3] = dietary inclusion 1.0%
compound,measurement,setting,value
"O=C(O)CCC(=O)O [Succinic acid, succinic acid]","Feed conversion, relative to control (100)","[1]; Day 1-22, 2.5 g/kg feed",94.3
same,"Weight gain, relative to control (100)","[1]; Day 1-22, 2.5 g/kg feed",109.7
same,"Feed conversion, relative to control (100)","[1]; Day 1-22, 5 g/kg feed",100.9
same,"Weight gain, relative to control (100)","[1]; Day 1-22, 5 g/kg feed",103.9
same,"Feed conversion, relative to control (100)","[1]; Day 1-22, 7.5 g/kg feed",94.8
same,"Weight gain, relative to control (100)","[1]; Day 1-22, 7.5 g/kg feed",110.5
same,"Feed conversion, relative to control (100)","[1]; Day 1-22, 10 g/kg feed",95.4
same,"Weight gain, relative to control (100)","[1]; Day 1-22, 10 g/kg feed",108.6
same,"Feed conversion, relative to control (100)","[1]; Day 1-36, 2.5 g/kg feed",98.7
same,"Weight gain, relative to control (100)","[1]; Day 1-36, 2.5 g/kg feed",103.6
same,"Feed conversion, relative to control (100)","[1]; Day 1-36, 5 g/kg feed",101.2
same,"Weight gain, relative to control (100)","[1]; Day 1-36, 5 g/kg feed",100.4
same,"Feed conversion, relative to control (100)","[1]; Day 1-36, 7.5 g/kg feed",99.4
same,"Weight gain, relative to control (100)","[1]; Day 1-36, 7.5 g/kg feed",104.5
same,"Feed conversion, relative to control (100)","[1]; Day 1-36, 10 g/kg feed",101.7
same,"Weight gain, relative to control (100)","[1]; Day 1-36, 10 g/kg feed",102.0
same,"Feed conversion, relative to control (100)","[1]; Day 22-36, 2.5 g/kg feed",102.3
same,"Weight gain, relative to control (100)","[1]; Day 22-36, 2.5 g/kg feed",99.2
same,"Feed conversion, relative to control (100)","[1]; Day 22-36, 5 g/kg feed",102.1
same,"Weight gain, relative to control (100)","[1]; Day 22-36, 5 g/kg feed",98.0
same,"Feed conversion, relative to control (100)","[1]; Day 22-36, 7.5 g/kg feed",103.2
same,"Weight gain, relative to control (100)","[1]; Day 22-36, 7.5 g/kg feed",100.2
same,"Feed conversion, relative to control (100)","[1]; Day 22-36, 10 g/kg feed",106.9
same,"Weight gain, relative to control (100)","[1]; Day 22-36, 10 g/kg feed",97.3
same,"Weight gain, relative to control (100)",[2],(105)
same,Feed intake,[2]; n = 4,416 ± 37 g/day
same,Feed conversion (feed/gain ratio),[3]; Day 0-14,1.48
same,Feed conversion (feed/gain ratio),[3]; Day 14-24,1.33
same,Feed conversion (feed/gain ratio),[3]; Day 24-36,1.41
same,Feed conversion (feed/gain ratio),"[3]; Overall, day 0-36",1.40
same,"Feed conversion (feed/gain ratio), Index","[3]; overall day 0-36, Neg. Control = 100.0",93.3%

# Like-named read-outs stand apart in the source and are kept apart here.
